Measurements taken from BindingDB's records for doi:10.1021/jm0002782 (Abbott Laboratories, 2000).

Experiment: Evaluated for its ability to block the adherence of JY-8 cells to immobilized ICAM-1.

Work on CC(=O)N1CCN(C(=O)/C=C/c2ccc(Sc3ccccc3C(C)C)c([N+](=O)[O-])c2)CC1 [A-286982] yielded an IC50 of 35 nM.
